# ChEMBL document CHEMBL4052822, “Design and Synthesis of Orally Bioavailable Piperazine Substituted 4(1H)-Quinolones with Potent Antimalarial Activity: Structure-Activity and Structure-Property Relationship Studies” (J Med Chem, 2018)
# Tests used:
# [1] = Resistance index, ratio of EC50 for mefloquine/chloroquine/atovaquone/pyrimethamine-resistant Plasmodium falciparum TM90-C2B to EC50 for pyrimethamine/chloroquine-resistant Plasmodium falciparum W2; type: functional
# Method in brief: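 Ring-stage cultures (>70% rings) were set at 0.5–0.7% parasitemia and 1.5% hematocrit under 90% N2/5% O2/5% CO2 at 37 °C. Label was added at 48 h and plates harvested at 72 h. Compounds were tested in duplicate over 11 concentrations, with EC50 from nonlinear regression.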
# Plasmodium berghei [2] = experiment: animal or person; conditions: in Mus musculus, po, read-out: INH
# Plasmodium berghei [3] = experiment: animal or person; conditions: in Mus musculus, po, read-out: INH; remark: listed apart in the source
# Plasmodium berghei [4] = experiment: Antimalarial activity against liver stage form of luciferase transfected Plasmodium berghei sporozoites infected in mouse assessed as inhibition of parasitemia at 50 mg/kg administered via oral gavage 1 hr post infection measured on day 9 by bioluminescence method relative to control; type: functional
# Plasmodium berghei [5] = experiment: Antimalarial activity against liver stage form of luciferase transfected Plasmodium berghei sporozoites infected in mouse assessed as inhibition of parasitemia at 100 mg/kg administered via oral gavage 1 hr post infection measured on day 9 by bioluminescence method relative to control; type: functional
SMILES,Ratio EC50 [1],inhibition in vivo at 50 mg/kg (Plasmodium berghei [2]),other results
COC(=O)c1c[nH]c2cc(CCN3CCN(Cc4ccc(OC)cc4)CC3)ccc2c1=O,> 167,–,–
COC(=O)c1c[nH]c2cc(CN3CCN(Cc4ccccc4)CC3)ccc2c1=O,106,100%,–
COC(=O)c1c[nH]c2cc(CN3CCN(c4ccc(F)cc4)CC3)c(OC)cc2c1=O,122,100%,–
Cc1[nH]c2cc(CN3CCN(c4ccc(F)cc4)CC3)ccc2c(=O)c1Cl,–,100%,–
COC(=O)c1c[nH]c2cc(N3CCN(Cc4ccccc4)CC3)ccc2c1=O,–,–,inhibition in vivo at 50 mg/kg (Plasmodium berghei [3]): 43.1%
COC(=O)c1c[nH]c2cc(CN3CCN(c4ccc(OC)cc4)CC3)c(C)cc2c1=O,316,100%,–
COC(=O)c1c[nH]c2cc(N3CCN(c4ccccc4)CC3)c(C)cc2c1=O,24,80%,–
O=c1c(Cl)c[nH]c2cc(CN3CCN(c4ccc(F)cc4)CC3)ccc12,–,100%,–
COC(=O)c1c[nH]c2cc(N3CCN(c4ccccc4)CC3)c(OC)cc2c1=O,–,70%,–
COC(=O)c1c[nH]c2cc(N3CCN(c4ccccc4)CC3)ccc2c1=O,–,38.5%,–
COC(=O)c1c[nH]c2cc(CN3CCN(c4ccccc4)CC3)c(C)cc2c1=O,345,46.2%,–
COC(=O)c1c[nH]c2cc(CN3CCN(Cc4ccc5c(c4)OCO5)CC3)ccc2c1=O,–,40%,–
COC(=O)c1c[nH]c2cc(CN3CCN(c4ccc(OC)cc4)CC3)c(OC)cc2c1=O,253,100%,–
COC(=O)c1c[nH]c2cc(CN3CCN(c4ccc(OC)cc4)CC3)ccc2c1=O,–,100%,–
COC(=O)c1c[nH]c2cc(CN3CCN(c4ccccc4)CC3)c(OC)cc2c1=O,306,100%,–
COC(=O)c1c[nH]c2cc(N3CCN(Cc4ccccc4)CC3)c(OC)cc2c1=O,–,100%,–
COC(=O)c1c[nH]c2ccc(CN3CCN(c4ccc(OC)cc4)CC3)cc2c1=O,–,84.6%,–
COC(=O)c1c[nH]c2cc(CN3CCN(Cc4ccc(OC)cc4)CC3)c(OC)cc2c1=O,–,100%,–
COC(=O)c1c[nH]c2cc(CN3CCN(Cc4ccc(OC)cc4)CC3)ccc2c1=O,–,69.2%,inhibition in vivo at 50 mg/kg (Plasmodium berghei [3]): 41.2%; inhibition in vivo at 50 mg/kg (Plasmodium berghei [4]): 38.8%; inhibition in vivo at 100 mg/kg (Plasmodium berghei [5]): 43.9%
COC(=O)c1c[nH]c2cc(CN3CCN(c4ccc(F)cc4)CC3)ccc2c1=O,–,–,inhibition in vivo at 50 mg/kg (Plasmodium berghei [3]): 98%
COC(=O)c1c[nH]c2cc(CN3CCN(Cc4ccccc4)CC3)c(C)cc2c1=O,614,100%,–
COC(=O)c1c[nH]c2cc(CN3CCN(Cc4ccccc4)CC3)c(OC)cc2c1=O,–,80%,–
COC(=O)c1c[nH]c2cc(CN3CCN(Cc4ccc(OC)cc4)CC3)c(C)cc2c1=O,417,80%,–
